## AlphaSeq binding of Ab-95 light chain variants to a spike HR2 peptide

From the AlphaSeq antibody data of Engelhart et al. 2022 (doi:10.1038/s41597-022-01779-4), copy in the FLAb collection.

Target peptide (SARS-CoV-2 spike, HR2 region): PDVDLGDISGINAS

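The starting antibody came from a phage panning campaign against this peptide. AAYL52 was designed without a model: most single CDR substitutions and a random sample of double and triple ones. AlphaSeq pools MATa yeast showing the antibodies with MATalpha yeast showing the peptide. Mating (16 h, 30 °C) was followed by selection of diploids and sequencing of their barcodes. A regression on co-assayed BCL2-family reference pairs converts the normalised counts of each replicate to an apparent Kd. Mating was done three times.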

Parent scFv Ab-95: VH joined to VL by the linker GGGGSGGGGSGGGGS. Changes lie in the light chain CDRs alone.
VH: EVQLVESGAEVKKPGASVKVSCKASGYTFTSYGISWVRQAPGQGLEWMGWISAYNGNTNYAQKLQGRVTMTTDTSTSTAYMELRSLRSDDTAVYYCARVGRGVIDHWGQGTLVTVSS
VL: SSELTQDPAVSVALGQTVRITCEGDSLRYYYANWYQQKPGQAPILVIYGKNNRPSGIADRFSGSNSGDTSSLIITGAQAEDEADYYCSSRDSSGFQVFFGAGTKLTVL

The parent's light chain CDRs are EGDSLRYYYAN, GKNNRPS, SSRDSSGFQVF; each variant's own CDRs replace them letter for letter.
Values are apparent Kd, the geometric mean of the replicates that gave a signal; lower means stronger binding.
"no signal" marks a missing value. The strain was present, yet no cells mated with the target were sequenced in any replicate, which points to weak or no binding.
Entries are sorted by rising average, undetected variants last.

CDR-L1 | CDR-L2 | CDR-L3 | apparent Kd | detected | control signals
EGDSLRNYYAN | GKNNRPS | SSRQSSGFQFF | 22 nM | 3 of 3 | 3 of 9
EGDSNRYPYAN | GKNIRPS | SSRDSSGFQVF | 37 nM | 3 of 3 | 0 of 9
EGDSLRYYYAN | GKNNRPS | SSRDTSGDQVR | 60 nM | 3 of 3 | 3 of 9
EGDSLRYSYGN | GKNNRPS | STRDSSGFQVF | 87 nM | 3 of 3 | 2 of 9
EGQSLRYYYAN | GKNNRPS | FSRDSSGFQTF | 120 nM | 3 of 3 | 1 of 9
EGDSLRYYYAN | GKNNRPS | SSRDSSGCQWA | 130 nM | 3 of 3 | 2 of 9
EGDSLRYYYAN | GENNRPS | SSRDSSGWSVF | 140 nM | 3 of 3 | 2 of 9
EGDSLGYYYAN | GKNNRPV | SSRDSSGFQVF | 150 nM | 3 of 3 | 2 of 9
EGDSLRYYYAN | GKDNRPT | SSRDSSGFQHF | 160 nM | 3 of 3 | 6 of 9
HGDSLLYYYAN | GKNNRPS | SSRDSSGYQVF | 160 nM | 3 of 3 | 4 of 9
EGDSLRYYYAN | GPNNRPS | SSRDSSGFISF | 200 nM | 3 of 3 | 2 of 9
EGASLRYFYAN | GKNMRPS | SSRDSSGFQVF | 280 nM | 3 of 3 | 6 of 9
EGDYLRYVYAN | GKNNRPH | SSRDSSGFQVF | 330 nM | 3 of 3 | 2 of 9
EGDSLRYYYAN | GKNNRPQ | SSRDSSGLQVF | 490 nM | 3 of 3 | 4 of 9
EGDSLRYYSAN | GKNNRPI | SSKDSSGFQVF | 870 nM | 3 of 3 | 3 of 9
EGDSLRYYYAN | GKNNRPR | SKRESSGFQVF | 1.2 µM | 2 of 3 | 2 of 9
EGYSLRYYYKN | GKNNRPS | SSRDSSGFQRF | 1.3 µM | 3 of 3 | 5 of 9
SGWSLRYYYAN | GKNNRPS | SSRDRSGFQVF | 1.9 µM | 2 of 3 | 0 of 9
EGMSLRYYYAN | GKNNRPS | SSRRSSGSQVF | 2.1 µM | 3 of 3 | 4 of 9
EGDSLRYYYAN | GRNRRPS | SSRDMSGFQVF | 2.1 µM | 2 of 3 | 5 of 9
EGDSLRYYYIN | GKNFRPS | SSRDSSGFQRF | 3.5 µM | 1 of 3 | 4 of 9
EGDSLRYYYAN | GQQNRPS | SSRDSSGFQVF | 3.9 µM | 2 of 3 | 0 of 9
EGDSPRYYYAN | GKNNRPN | SSRDSSGHQVF | 4.1 µM | 1 of 3 | 5 of 9
EGDHLRYYYSN | GKNNRPS | SSRDSKGFQVF | 4.2 µM | 2 of 3 | 1 of 9
EGDSLRYYYAN | GKNNRKS | SSRFSFGFQVF | 4.4 µM | 3 of 3 | 2 of 9
EYDSLRYYYAN | RKNNRPS | SSRDSSGFQVF | 6.2 µM | 2 of 3 | 3 of 9
EMDSLRYYYAD | GKNNRPS | SSRDSSGFQVF | 6.6 µM | 2 of 3 | 3 of 9
EGDSLDYYYAN | YKNNRPS | SSRDSSGFYVF | 7.9 µM | 2 of 3 | 4 of 9
EGDSLRCYYAN | GKNNRPS | SSKDSSGFQVF | 9.6 µM | 2 of 3 | 2 of 9
EMDSLRYYYAN | VKYNRPS | SSRDSSGFQVF | 13 µM | 2 of 3 | 8 of 9
EGDWLRYYYAN | GKNNRPS | SSADSSNFQVF | 22 µM | 2 of 3 | 6 of 9
EGDSLRYYIAN | GKNNQPS | SSRDSSGFQVV | 22 µM | 2 of 3 | 5 of 9
EGDSLRVYYAN | GKNNRPL | SNRDSSGFQVF | 24 µM | 2 of 3 | 2 of 9
EGDSLRYYYAN | MKNNRCS | SSRDSSGFQRF | 28 µM | 1 of 3 | 3 of 9
EGDSLFYYYAN | GKNNRQS | SSRDSEGFQVF | 40 µM | 1 of 3 | 0 of 9
EGDSLRYYYAE | GPNNRPS | SSRDQSGFQVF | 46 µM | 2 of 3 | 4 of 9
EGDSKRYYYAC | GKNNRPS | WSRDSSGFQVF | 52 µM | 3 of 3 | 3 of 9
EGDSLRYMYAN | GKNNRPS | SSRLSGGFQVF | 58 µM | 2 of 3 | 3 of 9
EGDSLRYYYDN | GKNNRPS | SSRDSSLWQVF | 93 µM | 2 of 3 | 1 of 9
EGDSLRYYYAN | GKNNRPS | PTRWSSGFQVF | 100 µM | 1 of 3 | 3 of 9
WGDSLRYYYAN | GKNNRPS | SSRRSSGFQVY | 150 µM | 1 of 3 | 1 of 9
EGDSLRYYSAN | FKNNRPS | SSRDSSGFQRF | 190 µM | 1 of 3 | 4 of 9
EGDSLRYIYAN | GKNNWPS | FSRDSSGFQVF | no signal | 0 of 3 | 3 of 9
EGDSLPYYYAN | GKNNRPS | SSTDSSGFQVL | no signal | 0 of 3 | 0 of 9
EGDSLRYYHAN | GKNNRPS | SKRISSGFQVF | no signal | 0 of 3 | 0 of 9
AGDSLRYYYAN | GKNNRQS | SSRESSGFQVF | no signal | 0 of 3 | 2 of 9
EGDSLRYYYAN | GKNNRPS | NSRDSSAIQVF | no signal | 0 of 3 | 1 of 9
EFDSLRYYYAN | GKNNRPS | SSEDSSGFQVF | no signal | 0 of 3 | 0 of 9
EGDSGRYYYAN | GKNDSPS | SSRDSSGFQVF | no signal | 0 of 3 | 4 of 9

In this assay the parent's reference entry averaged 200 nM; its copy inside this library read 180 nM.
Background: pairings of library AAYL52 with three empty control strains gave a value in 28% of cases (median 8.2 µM, 5th percentile 800 nM). Values in that range, when seen in few replicates, are hard to tell from nonspecific mating. For each scFv, signals with the empty controls are counted beside the result.